For this experiment, the system named is AF64A-treated rats. Put plainly: Active avoidance test in two-chamber shuttle box (Example 5). Type of experiment: in vivo, rat. Particulars: AF64A alone 3 nmol/3 μl i.c.v., solvent orally; mean ± SEM.

The text below walks through data of US6353015B1, “Method of treating neurodegenerative disorders” (St. Elizabeth's Medical Center, priority 1998, dated 2002).

For the substance ethylcholine aziridinium ion, the “Correct responses, % Learning test” value worked out at 37.4 ± 9.8% and the “Correct responses, % Retention test” value is 43.8 ± 8.1%.
